Entries after “also recorded” stand apart in the source; their conditions may differ.
Assays:
[1] = system: SKBR-3 breast cancer cells; assay: SNA-I lectin FACS of SKBR-3 cells incubated with glycosylation inhibitor-ADCs; type: cell-based; settings: for SNA-I staining (cell surface sialylation): 500 nM ADC
Procedure: SKOV-3 ovarian carcinoma cells (ATCC, Manassas, Va., USA) were cultured according to ATCC's instructions and incubated in the presence of either 50 μM 2-acetamido-2,4-dideoxy-4-fluoro-1,3,6-tri-O-acetyl-D-glucose for 4 days (β-4-F-GlcNAc; Sussex Research, Ottawa, Canada), 100 μM 5-acetamido-3,5-dideoxy-3-fluoro-2,4,7,8,9-penta-O-acetyl-D-erythro-L-manno-2-nonulosonic acid methyl ester (β-3-Fax-Neu5Ac; Tocris Bioscience, Abingdon, United Kingdom) for 3 days, or DMSO carrier control in parallel. After the incubation, cells were stained with fluorescein-labeled lectins SNA-I-FITC for α2,6-sialylation, LEA-FITC for poly-N-acetyllactos-amines (both from EY Labs, San Mateo, Calif., USA), Alexa Fluor 488-conjugated human recombinant Galectin-1, and Alexa Fluor 488-conjugated human recombinant Galectin-3 (both from Abcam, Cambridge, United Kingdom). Cells were washed and stored on ice in the dark until analysed by FACSAriaII flow cytometer.
SKBR-3 breast cancer cells (ATCC) were cultured in recommended conditions and incubated with glycosylation inhibitors and ADCs as described above. The cells were then subjected to labeling with SNA-I lectin and FACS analysis as described above.

HER2 = assay: Inhibition of HER2 glycoprotein N-glycosylation in SKBR-3 cells (SDS-PAGE, anti-HER2 immunoblot); type: cell-based, human; settings: six days' incubation, read-out: EC50 (concentration with 50% efficacy) of decrease of relative MW of HER2, defective N-glycosylation
Excerpt: After six days' culture, the cells were lysed and samples from each treatment were subjected to SDS-PAGE and immunoblotting with anti-HER2 antibody (anti-human ErbB2/Her2 goat polyclonal antibody AF1129, R&D Systems) with standard procedures.

[2] = system: NCI-N87 cancer cell line tumors; assay: In vivo efficacy trial, tumors on chicken egg chorioallantoic membrane (CAM); settings: day E18, trastuzumab and tunicamycin-ADC single dose 2.5 mg/kg, pembrolizumab […] five doses, PBS control 32.2
Procedure: The study was performed by Inovotion SAS (La Tronche, France) as follows: Fertilized chicken eggs were incubated at 37.5° C. with 50% relative humidity for 9 days (E9), when the chorioallantoic membrane (CAM) was dropped down by drilling a small hole through the eggshell into the air sac, and a 1 cm^2 window was cut in the eggshell above the CAM. The NCI-N87 cell line was cultivated in RPMI-1640 medium supplemented with 10% FBS and 1% penicillin/streptomycin. On day E9, cells were detached by trypsin, washed with complete medium and suspended in graft medium. An inoculum of 2 million cells was added onto the CAM of each egg. On day 10 (E10), tumors began to be detectable. […] On day 18 (E18) the upper portion of the CAM was removed, washed in PBS and then directly transferred in PFA (fixation for 48 h). The tumors were then carefully cut away from normal CAM tissue and weighed. Eggs were checked at each treatment time, or at least every two days, for viability during the study. At the end of the study, the number of dead embryos was counted and combined with the observation of eventual visible macroscopic abnormalities (observation done during the sample collection) to evaluate the toxicity.

SKBR-3 cells [3] = assay: ADCC assay (LDH cytotoxicity) with SKBR-3 cells pre-incubated with glycosylation inhibitors; type: cell-based
Procedure: (§1) SKBR-3 and SKOV-3 cells were cultured on 96-well plates in recommended conditions and incubated with or without glycosylation inhibitors or ADCs for four days as described above. […] After 3.5 h at +37° C., cytotoxicity was assessed with commercial lactate dehydrogenase assay kit (Cytotoxicity detection kit (LDH), Thermo Fischer Scientific) and the cytotoxicities were calculated as proportion of killed cells (%, average of three parallel wells).

SKOV-3 cells = assay: ADCC assay (LDH cytotoxicity) with SKOV-3 cells pre-incubated with glycosylation inhibitors; type: cell-based; settings: SKOV-3, trastuzumab without both inhibitor and effector cells
Procedure: as §1

SKBR-3 cells [4] = settings: five or eight days, up to 1 μM

Trastuzumab-MC-VC-PAB-DMAE-kifunensine, DAR=4-8: trastuzumab conjugated via reduced hinge cysteines to MC-VC-PAB-DMAE-kifunensine
SNA-I staining (N-glycosylation-associated cell surface sialylation) ([1]; 10 nM ADC, four days): staining dropped; also recorded: reduced staining

trastuzumab-MC-VC-PAB-3Fax-Neu5N, DAR=4-8
SNA-I staining (cell surface sialylation) ([1]; four days (figure legend)): staining dropped | SNA-I staining (cell surface sialylation) ([1]; three days (Example 14 text)): reduced staining

trastuzumab-MC-VC-PAB-DMAE-tunicamycin DAR=8 ADC: DAR=8 conjugate of MC-VC-PAB-DMAE-tunicamycin V prepared from trastuzumab
EC50 (HER2): 40 nM | Mean tumor size [2]: 22.1 mg

trastuzumab: anti-HER2 antibody Trastuzumab (Herceptin, Roche)
cytotoxicity (proportion of killed cells) (SKBR-3 cells [3]; first assay, SKBR-3, without inhibitors, 1 μg/ml trastuzumab and effector cells applied): 13.2% | cytotoxicity (proportion of killed cells) (SKBR-3 cells [3]; second assay, SKBR-3, trastuzumab without both inhibitor and effector cells): no cytotoxicity was observed | cytotoxicity (proportion of killed cells) (SKBR-3 cells [3]; second assay, SKBR-3, without inhibitors, trastuzumab and effector cells applied): about 12% | absorbance reading in the cytotoxicity assay (SKBR-3 cells [3]; third assay, SKBR-3, without the inhibitor, trastuzumab and effector cells applied): below 0.6 | cytotoxicity (proportion of killed cells) (SKOV-3 cells): no cytotoxicity was observed | Mean tumor size [2]: 17.5 mg | cytotoxicity to the cells in the viability assay (SKBR-3 cells [4]): only modest cytotoxicity
